# ChEMBL document CHEMBL4507296, “Data for DCP probe PF-05105679” (2021)
# Chains of the proteins cited; added tags and fusions are not shown.
# Phosphatidylinositol 4,5-bisphosphate 3-kinase catalytic subunit alpha isoform (Homo sapiens), P42336, UniProt P42336, whole entry Q546K: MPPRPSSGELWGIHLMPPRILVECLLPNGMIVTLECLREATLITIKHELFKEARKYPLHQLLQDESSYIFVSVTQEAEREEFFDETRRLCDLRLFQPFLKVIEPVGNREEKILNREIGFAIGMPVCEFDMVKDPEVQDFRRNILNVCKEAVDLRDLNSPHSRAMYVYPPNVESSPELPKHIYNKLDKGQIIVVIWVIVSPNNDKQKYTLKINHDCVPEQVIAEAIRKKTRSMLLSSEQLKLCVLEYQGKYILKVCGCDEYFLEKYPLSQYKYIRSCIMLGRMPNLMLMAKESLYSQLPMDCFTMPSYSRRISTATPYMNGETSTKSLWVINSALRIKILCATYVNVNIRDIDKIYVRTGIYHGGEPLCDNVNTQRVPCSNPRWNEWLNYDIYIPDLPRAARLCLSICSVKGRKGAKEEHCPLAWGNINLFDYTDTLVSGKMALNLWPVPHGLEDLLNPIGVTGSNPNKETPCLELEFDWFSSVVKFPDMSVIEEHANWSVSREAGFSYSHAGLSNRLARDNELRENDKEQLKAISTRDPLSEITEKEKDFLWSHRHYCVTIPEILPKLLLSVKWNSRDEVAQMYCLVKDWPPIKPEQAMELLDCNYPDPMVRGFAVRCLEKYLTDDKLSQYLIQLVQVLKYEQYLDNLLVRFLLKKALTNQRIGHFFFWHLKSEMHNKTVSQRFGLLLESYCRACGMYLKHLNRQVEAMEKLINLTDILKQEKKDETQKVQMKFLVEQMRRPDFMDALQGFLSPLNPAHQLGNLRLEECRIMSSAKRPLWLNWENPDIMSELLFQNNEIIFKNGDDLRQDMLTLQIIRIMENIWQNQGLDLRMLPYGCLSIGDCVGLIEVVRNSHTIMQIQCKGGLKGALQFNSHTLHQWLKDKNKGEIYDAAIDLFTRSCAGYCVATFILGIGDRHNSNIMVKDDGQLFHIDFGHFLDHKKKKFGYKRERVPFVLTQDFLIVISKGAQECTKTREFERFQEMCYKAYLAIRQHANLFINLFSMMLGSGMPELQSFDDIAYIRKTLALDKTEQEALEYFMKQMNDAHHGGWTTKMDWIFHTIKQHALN
# Tests used:
# [1] = target: T1, Serine/threonine-protein kinase TAO3 (Homo sapiens) (UniProt Q9H2K8); details: Compound concentration 1000.0 nM
# T1 sequence (whole entry): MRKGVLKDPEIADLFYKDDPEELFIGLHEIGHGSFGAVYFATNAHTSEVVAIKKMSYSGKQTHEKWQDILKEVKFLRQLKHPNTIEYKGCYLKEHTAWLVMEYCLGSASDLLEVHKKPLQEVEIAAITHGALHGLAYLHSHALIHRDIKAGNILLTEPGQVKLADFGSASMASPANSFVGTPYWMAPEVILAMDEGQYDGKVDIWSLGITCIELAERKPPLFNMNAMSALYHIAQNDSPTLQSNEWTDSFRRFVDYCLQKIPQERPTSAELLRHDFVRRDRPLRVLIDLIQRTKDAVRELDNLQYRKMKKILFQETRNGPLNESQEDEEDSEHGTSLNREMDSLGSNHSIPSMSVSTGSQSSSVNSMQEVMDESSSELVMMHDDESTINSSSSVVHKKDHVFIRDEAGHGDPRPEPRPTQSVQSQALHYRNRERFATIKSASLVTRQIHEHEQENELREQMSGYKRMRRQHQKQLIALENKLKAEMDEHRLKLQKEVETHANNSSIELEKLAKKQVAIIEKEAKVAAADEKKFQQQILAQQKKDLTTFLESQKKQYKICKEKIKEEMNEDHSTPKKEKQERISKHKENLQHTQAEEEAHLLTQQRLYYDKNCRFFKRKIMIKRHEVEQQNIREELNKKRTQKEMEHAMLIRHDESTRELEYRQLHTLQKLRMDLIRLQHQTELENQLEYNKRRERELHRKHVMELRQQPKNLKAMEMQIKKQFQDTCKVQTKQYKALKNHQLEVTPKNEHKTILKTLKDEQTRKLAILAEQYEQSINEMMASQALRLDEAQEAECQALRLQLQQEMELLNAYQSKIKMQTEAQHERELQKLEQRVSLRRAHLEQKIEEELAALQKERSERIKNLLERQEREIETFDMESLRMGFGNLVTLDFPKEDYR
# [2] = system: Phosphatidylinositol 4,5-bisphosphate 3-kinase catalytic subunit alpha isoform (Homo sapiens), P42336 [Q546K]; details: Compound concentration 1000.0 nM
smiles,measurement,setting,value
C[C@H](c1ccc(F)cc1)N(Cc1cccc(C(=O)O)c1)C(=O)c1cnc2ccccc2c1 [PF-05105679],residual activity,[1],41%
same,residual activity,[2],42%
